Molecular target: T1, Tyrosine-protein kinase JAK3 (Homo sapiens, UniProt P52333)
T1 sequence (P52333 whole entry): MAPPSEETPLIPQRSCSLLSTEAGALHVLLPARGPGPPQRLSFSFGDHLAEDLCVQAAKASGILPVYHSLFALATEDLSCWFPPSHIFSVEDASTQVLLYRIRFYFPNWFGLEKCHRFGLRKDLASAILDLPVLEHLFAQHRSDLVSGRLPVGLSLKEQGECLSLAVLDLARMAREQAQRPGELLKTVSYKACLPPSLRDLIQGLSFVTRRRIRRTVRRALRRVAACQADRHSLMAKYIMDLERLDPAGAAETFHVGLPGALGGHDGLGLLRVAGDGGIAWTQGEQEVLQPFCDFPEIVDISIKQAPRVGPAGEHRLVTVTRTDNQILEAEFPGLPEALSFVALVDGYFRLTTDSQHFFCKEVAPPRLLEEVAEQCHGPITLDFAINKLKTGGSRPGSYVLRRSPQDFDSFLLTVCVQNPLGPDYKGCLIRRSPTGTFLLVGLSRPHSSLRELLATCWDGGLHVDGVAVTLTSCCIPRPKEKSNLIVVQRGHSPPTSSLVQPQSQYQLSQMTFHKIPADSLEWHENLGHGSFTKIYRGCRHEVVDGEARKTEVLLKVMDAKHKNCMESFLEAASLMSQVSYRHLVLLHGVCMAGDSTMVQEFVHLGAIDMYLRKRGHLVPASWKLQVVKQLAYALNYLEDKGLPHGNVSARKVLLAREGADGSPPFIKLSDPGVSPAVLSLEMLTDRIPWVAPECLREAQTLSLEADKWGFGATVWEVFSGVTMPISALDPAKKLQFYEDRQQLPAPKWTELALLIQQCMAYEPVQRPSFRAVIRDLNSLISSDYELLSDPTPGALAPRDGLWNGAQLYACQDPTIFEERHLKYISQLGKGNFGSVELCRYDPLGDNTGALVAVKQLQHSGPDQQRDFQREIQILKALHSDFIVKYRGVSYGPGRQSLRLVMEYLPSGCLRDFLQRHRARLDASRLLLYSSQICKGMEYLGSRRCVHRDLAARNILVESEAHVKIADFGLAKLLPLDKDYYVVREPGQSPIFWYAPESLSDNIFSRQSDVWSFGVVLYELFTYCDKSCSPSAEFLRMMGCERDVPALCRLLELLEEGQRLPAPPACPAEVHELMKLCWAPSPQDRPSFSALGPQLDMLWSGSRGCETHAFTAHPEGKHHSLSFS
Test: JAK Caliper Enzyme Assay: Test article was solubilized in dimethyl sulfoxide (DMSO) to a stock concentration of 30 mM. An 11-point half log dilution series was created in DMSO with a top concentration of 600 μM. […] The compound plates were diluted 1 to 60 resulting in a top final assay compound concentration of 10 μM and a 2% DMSO concentration.Test article and assay controls were added to a 384-well plate. Reaction mixtures contained 20 mM HEPES, pH 7.4, 10 mM magnesium chloride, 0.01% bovine serum albumin (BSA), 0.0005% Tween 20, 1 mM ATP and 1 μM peptide substrate. […] The assays were initiated by the addition 1 nM JAK3 enzyme and were incubated at room temperature 75 minutes for JAK3. Enzyme concentrations and incubation times were optimized for each new enzyme preps and were modified slightly over time to ensure 20%-30% phosphorylation. The assays were stopped with a final concentration of 10 mM EDTA, 0.1% Coating Reagent and 100 mM HEPES, pH=7.4. The assay plates were placed on a Caliper Life Science Lab Chip 3000 (LC3000) instrument, and each well was sampled using appropriate separation conditions to measure the unphosphorylated and phosphorylated peptide.

SMILES: C=CC(=O)N1CCC[C@@](C)(Nc2ncnc3[nH]ccc23)C1
- IC50: > 10 µM

Source: ChEMBL document CHEMBL5726108, “Pyrrolo[2,3-d]pyrimidinyl, pyrrolo[2,3-b]pyrazinyl and pyrrolo[2,3-d]pyridinyl acrylamides” (2017)
